Key:
Sucrase-isomaltase = Sucrase-isomaltase (Mus musculus, UniProt B5THE3); test: Inhibition of sucrase in mouse intestinal […] by glucose release assay
[1] = molecular target: T1, Ceramide glucosyltransferase (Mus musculus, UniProt O88693); test: Inhibition of glucosylceramide synthase in mouse RAW cells preincubated with compound for 15 mins by in-situ enzyme inhibition assay; assay type: cell-based
T1 sequence (O88693 whole entry): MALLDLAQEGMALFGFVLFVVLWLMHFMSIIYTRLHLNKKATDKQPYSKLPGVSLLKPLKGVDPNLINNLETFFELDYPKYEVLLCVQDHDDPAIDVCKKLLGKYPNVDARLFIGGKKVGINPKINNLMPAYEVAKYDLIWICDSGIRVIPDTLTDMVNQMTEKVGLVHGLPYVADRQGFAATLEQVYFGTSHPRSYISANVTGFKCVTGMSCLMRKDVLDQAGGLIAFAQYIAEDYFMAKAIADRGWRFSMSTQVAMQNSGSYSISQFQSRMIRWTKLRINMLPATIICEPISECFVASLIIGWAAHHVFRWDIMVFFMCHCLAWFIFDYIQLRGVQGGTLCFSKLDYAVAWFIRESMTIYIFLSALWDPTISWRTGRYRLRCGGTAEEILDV

Chains of the proteins cited; added tags and fusions are not shown.
UniProt B5THE3, whole entry: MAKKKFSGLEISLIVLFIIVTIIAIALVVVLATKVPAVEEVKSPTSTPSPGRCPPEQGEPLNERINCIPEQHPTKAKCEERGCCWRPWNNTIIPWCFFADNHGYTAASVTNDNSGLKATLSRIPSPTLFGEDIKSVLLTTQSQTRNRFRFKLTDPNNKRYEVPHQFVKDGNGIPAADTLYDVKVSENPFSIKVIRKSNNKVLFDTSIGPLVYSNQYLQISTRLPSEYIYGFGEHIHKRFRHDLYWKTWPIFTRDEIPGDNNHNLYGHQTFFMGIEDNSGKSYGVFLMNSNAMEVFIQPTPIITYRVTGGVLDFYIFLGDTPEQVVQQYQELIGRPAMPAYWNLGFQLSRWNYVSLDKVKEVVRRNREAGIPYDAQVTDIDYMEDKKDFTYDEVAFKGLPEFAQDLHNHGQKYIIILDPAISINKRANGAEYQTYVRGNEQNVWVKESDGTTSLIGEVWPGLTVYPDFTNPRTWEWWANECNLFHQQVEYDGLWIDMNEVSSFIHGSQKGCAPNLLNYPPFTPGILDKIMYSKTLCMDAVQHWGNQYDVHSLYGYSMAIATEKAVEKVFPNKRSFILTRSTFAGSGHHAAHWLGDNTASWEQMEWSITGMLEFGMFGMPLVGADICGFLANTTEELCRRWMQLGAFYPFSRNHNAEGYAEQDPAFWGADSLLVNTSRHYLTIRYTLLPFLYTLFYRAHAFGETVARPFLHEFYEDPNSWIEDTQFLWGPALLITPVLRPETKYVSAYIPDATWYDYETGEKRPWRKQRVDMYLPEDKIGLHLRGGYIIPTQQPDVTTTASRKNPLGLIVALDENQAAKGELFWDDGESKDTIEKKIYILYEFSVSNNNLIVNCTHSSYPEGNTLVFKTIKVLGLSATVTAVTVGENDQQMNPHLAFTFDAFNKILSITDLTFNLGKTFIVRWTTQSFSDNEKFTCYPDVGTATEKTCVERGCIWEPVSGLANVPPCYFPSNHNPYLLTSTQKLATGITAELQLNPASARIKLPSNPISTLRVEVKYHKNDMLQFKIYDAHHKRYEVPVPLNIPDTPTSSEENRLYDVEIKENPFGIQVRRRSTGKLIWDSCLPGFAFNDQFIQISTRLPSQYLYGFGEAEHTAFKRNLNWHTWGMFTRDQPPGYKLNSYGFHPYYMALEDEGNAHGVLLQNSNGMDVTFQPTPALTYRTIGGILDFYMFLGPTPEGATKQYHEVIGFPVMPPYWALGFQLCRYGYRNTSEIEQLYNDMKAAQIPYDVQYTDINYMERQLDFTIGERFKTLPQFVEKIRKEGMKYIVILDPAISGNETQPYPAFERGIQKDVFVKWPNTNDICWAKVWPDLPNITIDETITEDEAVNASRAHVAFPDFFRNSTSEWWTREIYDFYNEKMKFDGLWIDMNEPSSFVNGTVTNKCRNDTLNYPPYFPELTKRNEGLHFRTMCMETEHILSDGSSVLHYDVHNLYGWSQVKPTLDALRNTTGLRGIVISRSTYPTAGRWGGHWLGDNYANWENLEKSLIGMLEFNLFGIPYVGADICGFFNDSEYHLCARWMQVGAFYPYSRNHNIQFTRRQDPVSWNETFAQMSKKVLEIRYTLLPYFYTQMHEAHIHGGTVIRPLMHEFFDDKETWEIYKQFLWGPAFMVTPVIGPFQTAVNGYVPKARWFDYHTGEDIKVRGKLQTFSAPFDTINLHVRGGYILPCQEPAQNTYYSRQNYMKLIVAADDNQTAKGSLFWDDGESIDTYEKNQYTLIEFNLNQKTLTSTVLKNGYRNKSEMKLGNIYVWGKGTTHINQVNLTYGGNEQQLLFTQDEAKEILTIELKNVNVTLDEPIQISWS

Structure (SMILES)	IC50 (Sucrase-isomaltase)	IC50 [1]
OC[C@H]1[C@@H](O)[C@H](O)[C@@H](O)CN1CCCCCOCC12CC3CC(CC(C3)C1)C2	> 1000 µM	
CCCCCCCCCN1C[C@H](O)[C@@H](O)[C@H](O)[C@@H]1CO		2 µM
CCCCCCCCCN1C[C@H](O)[C@@H](O)[C@H](O)[C@H]1CO		4 µM
OC[C@@H]1[C@@H](O)[C@H](O)[C@@H](O)CN1CCCCCOCC12CC3CC(CC(C3)C1)C2	0.5 µM	

— ChEMBL document CHEMBL1649099, “Identification of potent and selective glucosylceramide synthase inhibitors from a library of N-alkylated iminosugars” (ACS Med Chem Lett, 2011)
